The results in this text go back to US10286079B2, “Modified cytotoxins and their therapeutic use” (The Regents of the University of California, priority 2015, dated 2019).

The data set can be described thus: Particle size by dynamic light scattering. In kind it is physicochemical. As to the method:
Multiple formulations of PTX-FA and HSA were prepared according to the method of Example 14, and varying the molar ratio of PTX-FA to HSA. For each formulation, a particle size analysis was carried out using dynamic light scattering.

In the case of Human serum albumin [Free HSA], the “Particle Radius” value (average radius) turned out to be 3.5 nm. Further, where the note is “particles having the respective radius”, the “Percentage of Particles” value is 99.8 mass %.
